Consider 1 compound from patent publication US7867980B2, “Lincosamide derivatives and antimicrobial agents comprising the same as active ingredient” (Meiji Seika Kaisha, Ltd., priority 2007, dated 2011).

Molecules are shown by their SMILES. Values after ≈ are worked out from the molar mass of the structure shown.

Common to all, as to test: Antimicrobial activity, minimum growth inhibitory concentration (MIC), agar dilution
Common to all, as to type: cell-based

One test deals with S. pneumoniae 1700. The settings on record: Streptococcus pneumoniae, 1700, read-out: minimum growth inhibitory concentration (MIC). The procedure: (§1) For representative compounds among lincomycin derivatives according to the present invention, the minimum growth inhibitory concentration (MIC, μg/ml) against various pneumococci was measured according to the method described in CHEMOTHERAPY, vol. […] Sensitivity disk agar-N+5% horse blood was used as the medium for the measurement. The amount of bacteria inoculated was about 10^6 CFU/ml.

In a further test the test system is S. pneumoniae 1820. The settings on record: Streptococcus pneumoniae, 1820, read-out: minimum growth inhibitory concentration (MIC). Here is the method:
as §1

A further test has as its system S. pneumoniae 1913. The settings on record: Streptococcus pneumoniae, 1913, read-out: minimum growth inhibitory concentration (MIC). Here is the method: as §1
For the next test, the system named is S. pneumoniae 225. The settings on record: Streptococcus pneumoniae, 225, read-out: minimum growth inhibitory concentration (MIC). The procedure:
as §1

The subject of another test is S. pneumoniae DP1 TypeI. The note with it: Streptococcus pneumoniae, DP1TYPEI, read-out: minimum growth inhibitory concentration (MIC). Here is the method:
as §1

The next test has as its system S. pneumoniae IP692. The settings on record: Streptococcus pneumoniae, IP692, read-out: minimum growth inhibitory concentration (MIC). The procedure:
as §1

The subject of a further test is S. pneumoniae PRC-206. The settings on record: Streptococcus pneumoniae, PRC206, read-out: minimum growth inhibitory concentration (MIC). Here is the method: as §1
A further test has as its system S. pneumoniae PRC-53. The note with it: Streptococcus pneumoniae, PRC53, read-out: minimum growth inhibitory concentration (MIC). Here is the method:
as §1

In the next test the test system is S. pneumoniae TH-662. The note with it: Streptococcus pneumoniae, TH662, read-out: minimum growth inhibitory concentration (MIC). Here is the method: as §1

On to `CCC[C@@H]1C[C@@H](C(=O)N[C@@H]([C@H]2O[C@H](SC)[C@H](O)[C@@H](O)[C@H]2O)[C@H](C)Cl)N(C)C1` [CLDM, clindamycin, reference compound], for which the MIC in the test with S. pneumoniae 1700 was determined as 256 µg/mL (≈ 602 µM); in the test with S. pneumoniae 1820 it was 256 µg/mL (≈ 602 µM); with S. pneumoniae 1913 it was 0.13 µg/mL (≈ 0.306 µM); in the test on S. pneumoniae 225 it was 256 µg/mL (≈ 602 µM); with S. pneumoniae DP1 TypeI, 0.13 µg/mL (≈ 0.306 µM); with S. pneumoniae IP692, 0.13 µg/mL (≈ 0.306 µM). Further, the figures for the MIC with S. pneumoniae PRC-206, in the test on S. pneumoniae PRC-53 and in the test on S. pneumoniae TH-662 were 256 µg/mL (≈ 602 µM), 0.03 µg/mL (≈ 0.0706 µM) and 256 µg/mL (≈ 602 µM), respectively.
